These are literature values, as cited in patent US7943806B2.

On to bromine, for which the water solubility is 3.5 grams/100 ml.
